Test results taken from patent US9914755B2 (dated 2018).

Experiment: Water Solubility Assay (onset of precipitation in buffer)
Conditions: concentration at which the compound remains in solution; 35 mM HEPES, 1% DMSO, 25 °C, 18 h; head says pH7.4

Aqueous Solubility pH7.4: >100 μM
Substance: [(2R)-2-[(5R,6R)-3,5-dimethyl-2-oxo-1,3-oxazinan-6-yl]-2-(methylamino)acetic acid]^1 cyclosporin A [Compound 21]
